Only a part is listed here, and it is no random draw. Active and inactive are the calls of the source.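 The calls were made as follows: active = mean Tm shift, scaled 0 neutral to 100 positive control, at about 1.3% or above, every replicate too (limit read from the data); inconclusive = no clear call, values can overlap the other calls; inactive = the rest.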

Sequences of proteins named here, by UniProt entry; tags and fusion partners are left off.
UniProt Q9HCT0, whole entry: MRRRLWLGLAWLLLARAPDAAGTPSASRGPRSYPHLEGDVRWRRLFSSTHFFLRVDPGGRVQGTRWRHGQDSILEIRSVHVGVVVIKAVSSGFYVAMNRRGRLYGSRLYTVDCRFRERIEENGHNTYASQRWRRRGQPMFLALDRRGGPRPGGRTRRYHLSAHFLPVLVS

This assay addresses Fibroblast growth factor 22 (Homo sapiens) (UniProt Q9HCT0). Nature of the assay: FGF22 ligand-induced thermal stabilization – biophysical, thermal shift, single point, FGF22 synaptogenesis inhibitor project, primary screen (AID 651658). The following applies: recombinant FGF22 thermal shift, SYPRO orange fluorescence; at 9.99 µM; stronger effect = higher value; percent of sucrose octasulfate shift, DMSO zero.
Regarding `COc1ccc2nc(NP(=O)(c3ccccc3)c3ccccc3)sc2c1`, the activity (Tm shift, normalised) is inactive: 0.089%.

As for `COc1cc(I)ccc1[As](=O)(O)O`, the activity (Tm shift, normalised) is inactive: 0.125%. Consider `COc1ccc(CN2/C(=N\P(=O)(Oc3ccccc3)Oc3ccccc3)Cc3ccccc3C2C2CC2)cc1` (configuration not stated), for which the activity (Tm shift, normalised) is inactive: -0.607%.

Consider `O=P1(N(CCCl)CCCl)Nc2ccccc2N1`, for which the activity (Tm shift, normalised) is inactive: -0.214%. In the case of `O=P1(N(CCCl)CCCl)OCCCN1CCCl` (configuration not stated), the activity (Tm shift, normalised) is inactive: 0.027%. As for `COc1ccc(N/C(=N/P(=O)(N2CCOCC2)N2CCOCC2)N2CCOCC2)cc1`, the activity (Tm shift, normalised) was inactive: -0.007%. Under `COc1ccccc1-c1ccccn1.O=[N+]([O-])c1cc([N+](=O)[O-])c(O)c([N+](=O)[O-])c1` stands inactive: 0.25%. As to `O=[N+]([O-])c1cc(Oc2ccc([N+](=O)[O-])cc2C(F)(F)F)cc([N+](=O)[O-])c1`, the activity (Tm shift, normalised) was inactive: 0.016%.

Consider `NC(=O)c1cc([N+](=O)[O-])cc([N+](=O)[O-])c1N`, for which the activity (Tm shift, normalised) is inactive: 0.568%. `CN(C(=O)Cc1ccc(Cl)c(Cl)c1)[C@H]1CCCC[C@H]1N1CCCC1`: the activity (Tm shift, normalised) was inactive: -0.068%.

For the molecule `COc1ccccc1OP(C)(=O)Nc1ccc(Br)cc1` (configuration not stated), the activity (Tm shift, normalised) is inactive: -0.18%. The value for `Cc1ccc(N/C(=N/P(=O)(N2CCOCC2)N2CCOCC2)N2CCOCC2)cc1` was inactive: 42.4%; that for `COc1ccccc1OP(=O)(Nc1ccc(C)cn1)Oc1ccccc1OC` was inactive: 0.343%; that for `Cc1ccc(OP(=O)(Nc2nccs2)Oc2ccc(C)cc2)cc1` was inactive: 0.241%. Under `Clc1ccc(Cl)c(NC2=NCC(CBr)S2)c1` (configuration not stated) stands inactive: 0.615%.

For `Nc1cc(N)c2nonc2c1[N+](=O)[O-]`, the activity (Tm shift, normalised) was inactive: 0.016%. In the case of `O=[N+]([O-])c1cc([N+](=O)[O-])c(Nc2ccccn2)c([N+](=O)[O-])c1`, the activity (Tm shift, normalised) was inactive: -0.08%. The value for `O=C(NC(Sc1ccncn1)C(Cl)(Cl)Cl)c1ccccc1` (configuration not stated) was inactive: -0.109%; that for `CC(=O)Nc1ccc([As](=O)(O)O)cc1` was inactive: -0.022%; that for `O=C(O)c1ccccc1[As](=O)(O)O` was inactive: -0.129%. As to `O=P(Nc1nc2ccc(Cl)cc2s1)(c1ccccc1)c1ccccc1`, the activity (Tm shift, normalised) is inactive: 0.135%. Consider `CN(C)P(=O)(N(C)C)n1c(Nc2ccccc2)nnc1-c1ccccc1`, for which the activity (Tm shift, normalised) was inactive: -0.692%. The value for `Cc1ccc(NP(=O)(Oc2ccccc2F)Oc2ccccc2F)nc1` was inactive: 0.011%; that for `CN(C(=O)Cc1ccc(Cl)c(Cl)c1)[C@H]1CCCC[C@@H]1N1CCCC1` was inactive: -0.01%; that for `CCn1c(=O)n(C2CCN(CC3CCCCCCC3)C[C@H]2CO)c2ccccc21` (some centres not stated) was inactive: 0.103%. Under `CN(C(=O)Cc1ccccc1)C1CC[C@@]2(CCCO2)C[C@@H]1N1CCCC1` (some centres not stated) stands inactive: -0.158%; under `Nc1cccc2ccc([As](=O)(O)O)cc12`, inactive: -0.9%.

As for `CCCCCCCCCCCCCCCC1C[N+](C)(C)CCOP(C)(=O)O1` (configuration not stated), the activity (Tm shift, normalised) is inactive: -1.61%. `CP(=O)(Nc1ccc(Cl)cc1Cl)Oc1ccccc1` (configuration not stated): the activity (Tm shift, normalised) is inactive: -0.124%. Under `CP(=O)(OCCOc1ccccc1)OCCOc1ccccc1` stands inactive: 0.033%; under `Nc1ccc2c(ccc3cccnc32)n1.O=[N+]([O-])c1cc([N+](=O)[O-])c(O)c([N+](=O)[O-])c1`, inactive: 0.221%. Under `O=P1(N(CCCl)CCCl)OCCCS1` (configuration not stated) stands inactive: -0.049%; under `CCOC(=O)c1ccc(NP(C)(=O)Oc2ccc(Cl)cc2)cc1` (configuration not stated), inactive: 0.679%. As to `O=C(Nc1cc([As](=O)(O)O)ccc1O)c1ccccc1`, the activity (Tm shift, normalised) is inactive: -0.527%. The value for `CC(C)(C)C(=O)NC(Sc1ccncn1)C(Cl)(Cl)Cl` (configuration not stated) was inactive: 0.254%; that for `O=[N+]([O-])c1ncn(CCn2ncnc2[N+](=O)[O-])n1` was inactive: 1.17%; that for `COC(=O)C1(C)COP(=O)(Nc2ccccc2)OC1` (configuration not stated) was inactive: -0.044%. Under `O=[N+]([O-])c1cccc(NC2=NCC(CBr)S2)c1` (configuration not stated) stands inactive: -0.124%; under `O=C(O)CNc1ccc([As](=O)(O)O)cc1`, inactive: 0.06%. The value for `COc1ccc(C2=NCC(CBr)S2)cc1` (configuration not stated) was inactive: 0.175%; that for `O=C(OCCCN1CCCC1)C(O)(c1ccccc1)C1CCCCC1` (configuration not stated) was inactive: -0.085%; that for `Cc1ccc(NP(=O)(Oc2ccccc2)Oc2ccccc2)nc1` was inactive: 0.011%.

As for `CCc1ccc(OP(C)(=O)Nc2cccnc2)cc1` (configuration not stated), the activity (Tm shift, normalised) was inactive: 0.46%.

As to `O=[N+]([O-])c1cc([N+](=O)[O-])c(CCNc2ccccc2)c([N+](=O)[O-])c1`, the activity (Tm shift, normalised) was inactive: 0.146%.

Turning to `COc1ccccc1OP(C)(=O)Nc1ccccc1Br` (configuration not stated), the activity (Tm shift, normalised) was inactive: -0.156%. Under `Nc1ccc([As](=O)(O)c2ccc(N)cc2)cc1` stands inactive: 0.119%; under `C[N+]1=C2C=CC=CC=C2SC12C([N+](=O)[O-])=CC([N+](=O)[O-])=C[C-]2[N+](=O)[O-]` (configuration not stated), inactive: 0.1%. Under `CCN(/C(=N/P(=O)(N1CCOCC1)N1CCOCC1)N1CCOCC1)c1ccc(OC)cc1` stands inactive: -0.161%; under `CC(C)c1nc(Nc2ccccc2)n(P(=O)(N(C)C)N(C)C)n1`, inactive: 0.057%; under `CN(C)C(=O)c1c([N+](=O)[O-])cc([N+](=O)[O-])cc1[N+](=O)[O-]`, active: 43.5%. As for `CC(C)=N/N=C(\N)N[N+](=O)[O-]`, the activity (Tm shift, normalised) was inactive: 0.111%. `c1cc(-c2nn[nH]n2)ccc1-c1nn[nH]n1`: the activity (Tm shift, normalised) was inactive: 0.499%. Turning to `CP(=O)(Nc1ccc(SC(F)(F)F)cc1)Oc1ccc(F)cc1` (configuration not stated), the activity (Tm shift, normalised) is inactive: 0.049%.

For `CCOP(=O)(CC)OCC`, the activity (Tm shift, normalised) is inactive: -0.077%. Under `O=P(Nc1ccccn1)(c1ccc(Br)cc1)c1ccc(Br)cc1` stands inactive: 0.169%; under `CN(C)C1(CNC(=O)c2ccc(Cl)c(S(N)(=O)=O)c2)CCCCC1`, inactive: -0.26%. Under `O=P(Nc1nc2ccccc2s1)(c1ccccc1)c1ccccc1` stands inactive: 0.219%; under `C[C@H]1OP(=O)(Oc2ccccc2)[C@H](O)[C@H](O)[C@H]1N=[N+]=[N-]` (some centres not stated), inactive: 0.05%; under `COc1ccc(NP(C)(=O)Oc2ccccc2OC)cc1` (configuration not stated), inactive: 0.142%. The value for `O=[N+]([O-])c1ncn(CCn2cnc([N+](=O)[O-])n2)n1` was inactive: 0.434%; that for `CC(=O)NC(SC(=S)N(C)C)C(Cl)(Cl)Cl` (configuration not stated) was inactive: 0.011%. Consider `O=[N+]([O-])c1ccc(OP2(=O)COCCO2)cc1` (configuration not stated), for which the activity (Tm shift, normalised) was inactive: -0.033%.

On to `O=[As](O)(c1ccccc1)c1ccc(O)cc1`, for which the activity (Tm shift, normalised) was inactive: 0.155%. Under `O=[N+]([O-])c1cc([N+](=O)[O-])c(NCC2CCS(=O)(=O)C2)c([N+](=O)[O-])c1` (configuration not stated) stands inactive: 0.052%; under `Cc1cc(-c2cccc3ccccc23)c(C)cn1.O=[N+]([O-])c1cc([N+](=O)[O-])c(O)c([N+](=O)[O-])c1`, inactive: 1.07%; under `Cc1c(C(c2ccc3c(c2)OCO3)c2c(C)n(C)n(-c3ccccc3)c2=O)c(=O)n(-c2ccccc2)n1C.O=[N+]([O-])c1cc([N+](=O)[O-])c(O)c([N+](=O)[O-])c1`, inactive: 0.104%.

As to `C/C(N)=N\P(=O)(OCc1ccccc1)OCc1ccccc1`, the activity (Tm shift, normalised) was inactive: -0.585%. For the molecule `C(Cc1nn[nH]n1)Cc1nn[nH]n1`, the activity (Tm shift, normalised) was inactive: 0.224%. The value for `Nc1ccc([As](=O)(O)c2ccc([N+](=O)[O-])cc2)cc1` was inactive: -0.305%; that for `CCNC(=S)/N=C(\N)N[N+](=O)[O-]` was inactive: 0.139%; that for `O=C(NC1CCS(=O)(=O)C1)NP(=S)(Oc1ccccc1)Oc1ccccc1` (configuration not stated) was inactive: -0.171%.

With `CCN(CC)CCCNc1ccccc1[N+](=O)[O-].O=[N+]([O-])c1cc([N+](=O)[O-])c(O)c([N+](=O)[O-])c1`, the activity (Tm shift, normalised) is active: 1.47%. The value for `Cc1ccc(NP(=O)(Oc2cccc(C)c2)Oc2cccc(C)c2)nc1` was inactive: -0.005%. Under `O=P1(N(CCCl)CCCl)OCCC2CCCCN21` (configuration not stated) stands inactive: -0.13%; under `COc1ccc(OP(C)(=O)Nc2ccc(SC(F)(F)F)cc2)cc1` (configuration not stated), inactive: -0.001%.

As for `Cc1c([N+](=O)[O-])cc([N+](=O)[O-])c(Br)c1[N+](=O)[O-]`, the activity (Tm shift, normalised) was inactive: -0.144%.

Regarding `Cc1ccc(OP(=O)(Nc2ccccn2)Oc2ccc(C)cc2)cc1`, the activity (Tm shift, normalised) was inactive: 0.282%. Under `O=C(OC1CN2CCC1CC2)c1ccccc1` (configuration not stated) stands inactive: -0.009%; under `CC(NC(=O)COC(=O)C(O)(c1ccccc1)c1ccccc1)c1ccccc1` (configuration not stated), inactive: -0.159%. The value for `Cc1ccccc1OP(=O)(Nc1ccccn1)Oc1ccccc1C` was inactive: 0.152%. The value for `O=[N+]([O-])c1cc([N+](=O)[O-])c(OC2CCCCC2O)c([N+](=O)[O-])c1` (configuration not stated) was inactive: 0.081%; that for `O=[N+]([O-])c1cc([N+](=O)[O-])c(Nc2ccc(Cl)cc2)c([N+](=O)[O-])c1` was inactive: 0.532%. For the molecule `CCOc1ccc(C2=NCC(CBr)S2)cc1` (configuration not stated), the activity (Tm shift, normalised) is inactive: 0.113%. Turning to `CCc1cc(O)c([N+](=O)[O-])c(C)c1[N+](=O)[O-]`, the activity (Tm shift, normalised) was inactive: -0.085%. Take `CP(=O)(Nc1ccccc1F)Oc1ccccc1` (configuration not stated): the activity (Tm shift, normalised) was inactive: 0.14%.

As for `CC(C)(C)C(=O)NC(Sc1ccccc1)C(Cl)(Cl)Cl` (configuration not stated), the activity (Tm shift, normalised) was inactive: -0.274%. Turning to `CC(C)c1ccc(OP(C)(=O)Nc2ccc(SC(F)(F)F)cc2)cc1` (configuration not stated), the activity (Tm shift, normalised) is inactive: 0.371%. Under `CC(=O)c1ccc(N2CC2c2ccncc2)cc1` (configuration not stated) stands inactive: -0.33%; under `N#C/C(=C\c1ccc(N(CCBr)CCBr)cc1)C(N)=O`, inactive: 0.198%.

As for `O=C(OC1CN2CCC1CC2)c1ccc([N+](=O)[O-])cc1` (configuration not stated), the activity (Tm shift, normalised) is inactive: -0.405%. In the case of `COC(=O)C1(C)COP(=O)(NCc2ccccc2)OC1` (configuration not stated), the activity (Tm shift, normalised) was inactive: -0.31%. Take `Cc1ccccc1CN(C)C(=O)COC(=O)C(O)(c1ccccc1)c1ccccc1`: the activity (Tm shift, normalised) was inactive: -0.014%. As to `O=C(OCCN1CCN(CCOCc2ccccc2)CC1)C(O)(c1ccccc1)c1ccccc1`, the activity (Tm shift, normalised) is inactive: -0.056%.

With `C[C@H]1OP(=O)(Oc2ccccc2)C[C@@H]2O[C@@H]21` (some centres not stated), the activity (Tm shift, normalised) is inactive: -0.51%. Under `C[C@@H]1C=CCP(=O)(Oc2ccccc2)O1` (some centres not stated) stands inactive: 0.021%. Take `CC(=O)Nc1ccc([As](=O)(O)O)c(O)c1`: the activity (Tm shift, normalised) was inactive: 0.236%. As for `CC(=O)Nc1ccc(Oc2c([N+](=O)[O-])cc([N+](=O)[O-])cc2[N+](=O)[O-])cc1`, the activity (Tm shift, normalised) was inactive: 0.356%.

The record behind these values is PubChem BioAssay AID651658 (Broad Institute, 2012).
